This is a sample that favours compounds with a hit; in the whole collection about 16% have one here.
miR-21 reporter – miR-21 reporter, rising signal | AID 2288 | HeLa miR-21 FLuc reporter, luciferase, 48 h | 340,000 tested, under 10 active | Potency, µM (titrated, usually from 38.3 µM); active = well fitted rising curve with a large enough effect; inconclusive = small, poorly fitted or top-dose-only effect; inactive = no such curve, though single readings can be large or run the other way;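 also: miR-21 action dims this reporter so a rising signal means less miR-21 action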
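HeLa cells endogenously expressing miR-21, stably carrying CMV-driven firefly luciferase with a downstream miR-21 binding site, 2000 cells/well. Titrations up to approximately 40 uM, 48 hours; luciferase luminescence read.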
DT40 TDP1 CPT – growth inhibition of DT40 Tdp1-/-;hTDP1 cells with camptothecin (screen for TDP1 inhibitors) | chicken DT40 Tdp1-/-;hTDP1 cells + 20 nM CPT, ATP luminescence, 48 h | Potency, µM (titrated, usually from 46.2 µM), hits mostly inhibitors | 12% of 420,000 active | AID 686979; further: nearly all actives have a fitted effect of over 55% in size
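Chicken DT40 Tdp1-/- cells stably complemented with human TDP1 were seeded at 400 cells/well in medium containing 20 nM camptothecin, exposed to pin-transferred compounds, and grown at 37 °C for at least 48 hr. Viability was read as ATP luminescence.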
uPA generation – cell surface uPA generation inhibition. cell surface uPA generation assay, qHTS. 0.31% of 330,000 active. Potency, µM (highest dose often 38.3 µM), usual class: inhibitors; active means well fitted inhibition curve with a large enough effect; inconclusive means small, poorly fitted or top-dose-only effect; inactive means no such curve, though single readings can be large or run the other way; tested in mouse RAW 264.7 cells; further: nearly all actives have a fitted effect of over 55% in size
TDP1 inh – blocks human tyrosyl-DNA phosphodiesterase 1; recombinant TDP1, AlphaScreen DNA substrate cleavage; Potency, µM (highest dose often 130 µM), hits mostly inhibitors; 0.28% of 350,000 active; Q9NUW8; AID 485290; further: nearly all actives have a fitted effect of over 40% in size
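Enzyme-compound mixtures sat 15 min at room temperature, followed by a 5 min reaction with 15 nM final substrate and 10 min with AlphaScreen beads. Recombinant human Tdp1 was used at 1 nM final.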
TDP1 cell noCPT – qHTS for Inhibitors of human tyrosyl-DNA phosphodiesterase 1 (TDP1): qHTS in cells in absence of CPT | DT40 Tdp1-/- hTDP1 cells, no CPT, ATP luminescence, 48 h | Potency, µM (highest dose often 46.2 µM), hits mostly inhibitors | 15% of 420,000 active | AID 686978, 2013; further: nearly all actives have a fitted effect of over 55% in size
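Seeded 400 DT40-hTDP1 cells/well (vehicle DMSO, no 20 nM CPT); pinned compounds; ≥48 hr at 37 °C; CellTiter-Glo luminescence as viability measure.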
Large screens that a line does not name were inactive. Unless noted, the call rests on the fitted dose curve; in most records, active means well fitted curve in the direction sought with a large enough effect; inconclusive means small, poorly fitted or top-dose-only effect, or another doubt; inactive means no such curve, though single readings can be large; an effect the other way counts as inactive or inconclusive.

O=C(NCc1ccc(F)cc1)c1ccc(CS(=O)(=O)c2ccc(Cl)cc2)o1	DT40 TDP1 CPT inconclusive, TDP1 cell noCPT 16.4µM (no result: uPA generation)
O=C(NCc1ccc(F)cc1)c1ccc(CS(=O)(=O)Cc2ccc(F)cc2)o1	DT40 TDP1 CPT inconclusive, TDP1 cell noCPT inconclusive
COc1ccccc1S(=O)(=O)Cc1ccc(C(=O)NCc2ccc(Cl)cc2)o1	DT40 TDP1 CPT inconclusive, TDP1 cell noCPT 18.4µM (no result: uPA generation)
CC[C@H](C)[C@@H]1OC(=O)[C@@H](C)[C@@H](CC)NC(=O)[C@H](C)N(C)C(=O)C(C)(C)C(=O)C(C)NC(=O)[C@H](Cc2ccccc2)N(C)C(=O)[C@H](C(C)C)N(C)C(=O)CNC(=O)[C@H](CC(C)C)N(C)C(=O)CNC1=O (some centres not stated)	DT40 TDP1 CPT 0.13µM, TDP1 cell noCPT 0.184µM (no result: miR-21 reporter, uPA generation, TDP1 inh)
CCN1C(=O)C(O)(CC(=O)/C=C/C=C/c2ccccc2)c2ccccc21 (configuration not stated)	DT40 TDP1 CPT 23.1µM, TDP1 cell noCPT inconclusive
O=C(/C=C/C=C/c1ccccc1)CC1(O)C(=O)N(CCc2ccccc2)c2ccccc21 (configuration not stated)	DT40 TDP1 CPT 20.6µM, TDP1 cell noCPT 18.4µM
C#CCN1C(=O)C(O)(CC(=O)/C=C/C=C/c2ccccc2)c2ccccc21 (configuration not stated)	DT40 TDP1 CPT inconclusive, TDP1 cell noCPT 23.1µM
NC(=O)CN1C(=O)C(O)(CC(=O)/C=C\C=C\c2ccccc2)c2ccccc21 (configuration not stated)	DT40 TDP1 CPT inconclusive, TDP1 cell noCPT inconclusive
O=C(CN1CCN(Cc2ccccc2)CC1)NNC(=O)c1ccc(Cl)cc1	none (no result: miR-21 reporter)
CCOC(=O)c1cnc(-n2nc(C)cc2C)nc1NC1CCCC1	miR-21 reporter inconclusive, DT40 TDP1 CPT 1.3µM, TDP1 cell noCPT 1.3µM (no result: TDP1 inh)
CCOC(=O)c1cnc(-n2nc(C)cc2C)nc1Nc1ccc(OC)cc1	DT40 TDP1 CPT 8.2µM, TDP1 cell noCPT 11.6µM
CCOC(=O)c1cnc(-n2nc(C)cc2C)nc1N(C)C	DT40 TDP1 CPT inconclusive, TDP1 cell noCPT inconclusive
CCOC(=O)c1cnc(-n2nc(C)cc2C)nc1Nc1ccccc1OC	none (no result: DT40 TDP1 CPT, uPA generation, TDP1 cell noCPT)
CCOC(=O)c1cnc(-n2nc(C)cc2C)nc1NCCc1ccccc1	miR-21 reporter inconclusive, DT40 TDP1 CPT 6.51µM, TDP1 cell noCPT 5.17µM
COc1ccccc1NC(=S)N(Cc1cccs1)C1CCCC1	DT40 TDP1 CPT inconclusive, TDP1 cell noCPT 6.51µM
COc1ccccc1NC(=S)N(Cc1ccccc1)Cc1cccs1	none
Cc1ccccc1CNC(=O)CCCC(=O)n1nc(C)c2ccccc21	none
COc1ccc(N2C(=S)N(C(=O)c3ccccc3)C(=Nc3ccccc3)C2=Nc2ccccc2)cc1	DT40 TDP1 CPT inconclusive, TDP1 cell noCPT 18.4µM (no result: miR-21 reporter, TDP1 inh)
COc1ccc(N=C2C(=Nc3ccc(OC)cc3)N(c3ccccc3)C(=S)N2C(=O)c2ccc(Cl)cc2)cc1	TDP1 cell noCPT inconclusive
COc1ccc(N=C2C(=Nc3ccc(OC)cc3)N(c3ccc(N(C)C)cc3)C(=S)N2c2ccc(OC)cc2)cc1	DT40 TDP1 CPT 0.651µM, uPA generation inconclusive, TDP1 cell noCPT 1.03µM
COc1ccc(N=C2C(=Nc3ccc(OC)cc3)N(c3ccc(OC)cc3)C(=S)N2C(=O)c2ccc(OC)cc2)cc1	DT40 TDP1 CPT inconclusive, TDP1 cell noCPT 18.4µM
O=C(/C=C/Sc1ccccc1)c1ccccc1	miR-21 reporter inconclusive, DT40 TDP1 CPT 5.8µM, uPA generation inconclusive, TDP1 cell noCPT 5.17µM
O=C(/C=C/Sc1ccccc1)c1ccc(Cl)cc1	DT40 TDP1 CPT inconclusive, uPA generation inconclusive, TDP1 cell noCPT 16.4µM
CSC(=CC(=O)c1ccccc1)SC	none
CCC(C)NC(=O)CSc1nnc(-c2ccc(Cl)cc2)n1N (configuration not stated)	none
Cc1ccc(C)c(C2=NNC(=NCc3ccccc3)SC2)c1	DT40 TDP1 CPT inconclusive, TDP1 cell noCPT inconclusive
C=C(C)CN=C1NN=C(c2cc(C)n(-c3ccc(C)cc3)c2C)CS1	DT40 TDP1 CPT 14.6µM, TDP1 cell noCPT 11.6µM
Cc1cc(C2=NNC(=NC3CCCCC3)SC2)c(C)n1-c1c(C)n(C)n(-c2ccccc2)c1=O	TDP1 cell noCPT inconclusive

Compound activity deposited in PubChem BioAssay by National Center for Advancing Translational Sciences (NCATS).
